Results taken from PubChem BioAssay AID875 (National Center for Advancing Translational Sciences (NCATS), 2007).
The entries are a selection whose mix differs from that of the whole data set. Some tests of the compounds listed are not included; inactive here does not mean inactive elsewhere. The source made the active and inactive calls. The call rests on the fitted dose curve; in most records, active means well fitted inhibition curve with a large enough effect; inconclusive means small, poorly fitted or top-dose-only effect; inactive means no such curve, though single readings can be large or run the other way.
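Further: plate controls were peptide without protein for full effect.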

Chains of the proteins cited; added tags and fusions are not shown.
UniProt P38398, whole entry: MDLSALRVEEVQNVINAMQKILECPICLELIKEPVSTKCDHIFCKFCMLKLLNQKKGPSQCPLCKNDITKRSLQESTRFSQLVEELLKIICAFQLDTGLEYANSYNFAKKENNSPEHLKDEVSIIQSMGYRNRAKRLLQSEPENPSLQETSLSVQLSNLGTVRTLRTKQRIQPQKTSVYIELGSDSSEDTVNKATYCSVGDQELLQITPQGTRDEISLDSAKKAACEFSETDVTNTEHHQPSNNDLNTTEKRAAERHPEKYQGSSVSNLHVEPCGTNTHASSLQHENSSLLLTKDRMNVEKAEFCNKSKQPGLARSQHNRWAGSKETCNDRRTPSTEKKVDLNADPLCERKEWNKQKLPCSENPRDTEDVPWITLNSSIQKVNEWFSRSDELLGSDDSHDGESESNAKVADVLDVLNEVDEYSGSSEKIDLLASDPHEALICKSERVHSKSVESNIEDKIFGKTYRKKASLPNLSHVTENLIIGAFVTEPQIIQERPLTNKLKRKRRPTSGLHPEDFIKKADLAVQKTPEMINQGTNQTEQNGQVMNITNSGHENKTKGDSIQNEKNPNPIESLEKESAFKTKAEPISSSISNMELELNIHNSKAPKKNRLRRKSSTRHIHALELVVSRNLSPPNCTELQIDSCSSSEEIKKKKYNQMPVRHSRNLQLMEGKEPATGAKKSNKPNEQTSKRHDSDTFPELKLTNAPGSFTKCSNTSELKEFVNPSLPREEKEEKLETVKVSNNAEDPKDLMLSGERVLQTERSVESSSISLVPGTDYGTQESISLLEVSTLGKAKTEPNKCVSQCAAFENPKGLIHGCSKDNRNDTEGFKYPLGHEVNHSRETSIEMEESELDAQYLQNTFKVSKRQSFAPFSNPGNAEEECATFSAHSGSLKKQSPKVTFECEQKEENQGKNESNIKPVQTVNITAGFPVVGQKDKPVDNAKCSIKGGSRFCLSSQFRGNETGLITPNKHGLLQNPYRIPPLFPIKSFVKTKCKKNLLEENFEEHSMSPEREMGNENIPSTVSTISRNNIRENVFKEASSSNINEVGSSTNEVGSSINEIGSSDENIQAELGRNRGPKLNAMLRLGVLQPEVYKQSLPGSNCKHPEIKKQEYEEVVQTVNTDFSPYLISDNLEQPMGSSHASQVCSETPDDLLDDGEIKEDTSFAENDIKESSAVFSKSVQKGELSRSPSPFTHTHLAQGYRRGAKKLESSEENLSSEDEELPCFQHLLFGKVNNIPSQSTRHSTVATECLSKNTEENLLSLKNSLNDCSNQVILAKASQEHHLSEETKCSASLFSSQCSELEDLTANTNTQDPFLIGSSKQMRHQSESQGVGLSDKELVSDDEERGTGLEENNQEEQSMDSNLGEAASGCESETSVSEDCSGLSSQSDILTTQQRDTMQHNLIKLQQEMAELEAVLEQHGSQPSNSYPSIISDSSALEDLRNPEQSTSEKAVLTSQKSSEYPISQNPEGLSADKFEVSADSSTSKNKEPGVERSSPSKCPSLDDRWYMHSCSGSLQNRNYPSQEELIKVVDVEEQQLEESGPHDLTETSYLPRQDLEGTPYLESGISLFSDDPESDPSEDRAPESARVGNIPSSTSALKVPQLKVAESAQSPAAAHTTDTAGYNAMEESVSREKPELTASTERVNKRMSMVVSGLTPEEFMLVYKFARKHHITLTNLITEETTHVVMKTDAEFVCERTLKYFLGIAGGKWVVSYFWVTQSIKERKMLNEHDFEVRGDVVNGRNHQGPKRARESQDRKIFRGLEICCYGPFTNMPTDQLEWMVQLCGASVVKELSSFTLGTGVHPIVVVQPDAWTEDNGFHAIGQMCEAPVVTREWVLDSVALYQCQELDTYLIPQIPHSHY

Each compound was assayed against Breast cancer type 1 susceptibility protein (Homo sapiens) (UniProt P38398) (assay: qHTS Assay for Inhibitors of BRCT-Phosphoprotein Interaction (Green Fluorophore)). Settings: BRCA1 BRCT-phosphopeptide binding, green fluorescence polarization; at 15.4 µM (top of the series) unless noted.
Method: NIH Molecular Libraries Screening Centers Network [MLSCN]
NIH Chemical Genomics Center [NCGC]
PI Name: Natarajan, Amarnath; University of Texas
A complex of BRCT (C-terminal portion of BRCA1, MW ~35 kDa, His-tagged) and fluorescently labeled pBACH1 phosphorylated 10 aa peptide fragment of BACH1, a helicase implicated in DNA repair, is incubated with library members. Inhibitors of BRCT-pBACH1 binding are detected by a decrease in the fluorescence polarization (FP) of the fluorophore. In order to minimize the effect of fluorescence artifacts and to increase the overall robustness of the screen, the compound library members were incubated in separate reactions with fluorescein labeled probe-protein complexes. Protein and labeled probes were supplied by Dr. Amarnath Natarajan, Department of Pharmacology and Toxicology, University of Texas Medical Branch Galveston, TX.
Assay Buffer: 16mM Na2HPO4, 4 mM NaH2PO4, 150 mM NaCl, 1 mM EDTA, 1 mM DTT, 0.02% NaN3, and 0.01% Tween 20 at pH 7.3.
100 nM labeled decapeptide/250 nM protein in columns 1, 2, 5 - 48. Titration of unlabeled decapeptide control (from 10 mM, then 1:2 dilution in duplicate) pin-transferred to column 2, rows 1 to 16. Column 1 is neutral.
Three uL of reagents were dispensed to 1536-well Greiner black solid-bottom plates. Compounds and controls (23 nL) were transferred
via Kalypsys PinTool. The plates were incubated for 12 min at room temperature, and then read on ViewLux (Perkin-Elmer) High throughput CCD imager using FITC for the fluorescein-labeled decapeptide probe polarization filter sets. During dispense, reagent bottles were kept submerged into 4 deg C water bath and all liquid lines were covered with aluminum foil to minimize probe and protein degradation. All screening operations were performed on a Kalypsys robotic system (Kalypsys, Inc., San Diego, CA) containing one RX-130 and two RX-90 anthropomorphic robotic arms. The timing and order of assay plates passing through the screening system were adjusted such that each compound library plate was assayed against the fluorescein- and rhodamine-labeled assay systems at immediately adjacent time points.
In the case of C=C(C)C#C[C@@](O)(C(=O)OC1CCN(C)CC1)c1ccccc1, the activity change, negative = inhibition is reported as inactive: -0.0105%. In the case of CN1CCC[C@H](OC(=O)[C@](O)(c2ccccc2)C2CCCC2)C1, the activity change, negative = inhibition is reported as inactive: -0.0772%. For CN1CC[C@H](OC(=O)[C@](O)(c2ccccc2)C2CCCC2)C1, the activity change, negative = inhibition was inactive: -0.276%. With O=C(OC1CN2CCC1CC2)C(CO)(c1ccccc1)c1ccccc1 (stereo not given) the activity change, negative = inhibition was inactive: 1.61% [at 76.9 µM]. With CN(C)c1cccc(C(=O)NCC2(N(C)C)CCCCC2)c1 the activity change, negative = inhibition was inactive: -1.37% [at 76.9 µM].
